Reference: patent US11548923B2, “Peptide compositions and methods of use thereof for disrupting TEAD interactions” (Fred Hutchinson Cancer Center, priority 2017, dated 2023)

Sequences of proteins named here, by UniProt entry; tags and fusion partners are left off. Residues count along the entry.
UniProt P28347, 209-426: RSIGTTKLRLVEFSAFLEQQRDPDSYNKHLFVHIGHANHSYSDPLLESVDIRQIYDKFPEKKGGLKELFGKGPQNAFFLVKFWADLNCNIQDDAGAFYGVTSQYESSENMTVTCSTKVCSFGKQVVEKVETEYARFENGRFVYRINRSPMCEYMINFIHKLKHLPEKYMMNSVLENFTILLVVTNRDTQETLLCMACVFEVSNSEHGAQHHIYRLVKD

Experiments:
biotinylated TEAD = target: T1, biotinylated TEAD (Homo sapiens, UniProt P28347); test: Surface plasmon resonance (SPR) binding of soluble peptides to captured biotinylated TEAD; details: biotinylated TEAD immobilized on an SPR chip, read-out: dissociation constant (KD)
T1 construct: soluble TEAD (194-411) was produced with two C-terminal tags; GST; made in house; host or cells: Hi5 insect cells (baculovirus, BacMagic, pIEX-BAC3)

[1] = Peptide stability in reducing conditions (HPLC); type: physicochemical
[2] = Circular dichroism thermal stability; type: physicochemical; details: heating from 20° C. to 95° C.
Protocol: Circular Dichroism. Protein secondary structures can be assessed using Circular Dichroism (CD). CD spectra can be measured with a Jasco J-720W spectropolarimeter using a 1.0 mm path length cell. Protein samples in 10 mM phosphate buffer (pH=7.4) can be at 25-30 uM protein concentration. Samples can be analyzed at wavelength ranges of 260-190 nM. Data can be expressed in terms of relative ellipticity [θ]; (mdeg). To determine thermal stability of proteins, samples can be subjected to incremental increase in temperature at a ramp of 2° C./min from 20° C. to 95° C. […] Data can be expressed in terms of relative ellipticity [θ], reported in mdeg.
(§1) Protein secondary structures were assessed using Circular Dichroism (CD). CD spectra were measured with a Jasco J-720W spectropolarimeter using a 1.0 mm path length cell. Protein samples in 10 mM phosphate buffer (pH=7.4) were at 25-30 μM protein concentration. Samples were analyzed at wavelength ranges of 260-190 nM. Data were expressed in terms of relative ellipticity; (mdeg). To determine thermal stability of proteins, samples were subjected to incremental increase in temperature at a ramp of 2° C./min from 20° C. to 95° C. […] Data are expressed in terms of relative ellipticity, reported in mdeg. For SEQ ID NO: 9 and its point mutant variants, no changes to the α-helix-dominated structure were observed upon heating up to 95° C. […] Additionally, protein melting temperature (Tm) determination was performed by monitoring protein unfolding using SYPRO Orange dye (Molecular Probes). In brief, 0.1 mg/mL protein sample in 20 μL total volume PBS buffer were mixed with 2 μL of 10×SYPRO Orange dye. Dye intercalation into the hydrophobic protein core following protein unfolding was assayed using the C1000 Touch Thermal Cycler with CFX96 Deep Well Real-Time System (BioRad). Samples were heated from 20° C. to 95° C. with stepwise increments of 0.5° C. per minute and a 5 sec hold step for every point, followed by fluorescence reading. Tm was calculated by analyzing the derivatives of Relative florescence Units (RFU). […]

[3] = SYPRO Orange thermal shift (melting) assay; type: physicochemical; details: heating from 20° C. to 95° C.
Protocol: Thermal Shift Assay. Protein melting temperature (Tm) determination can be performed by monitoring protein unfolding using SYPRO Orange dye (Molecular Probes). In brief, 0.1 mg/mL protein sample in 20 μL total volume PBS buffer can be mixed with 2 μL of 10×SYPRO Orange dye. Dye intercalation into the hydrophobic protein core following protein unfolding was assayed using the C1000 Touch Thermal Cycler with CFX96 Deep Well Real-Time System (BioRad). Samples were heated from 20° C. to 95° C. with stepwise increments of 0.5° C. per minute and a 5 see hold step for every point, followed by fluorescence reading. Tm were calculated by analyzing the derivatives of Relative florescence Units (RFU).
as §1, with “Dye intercalation into the hydrophobic protein core following protein unfolding was assayed using the C1000 Touch Thermal Cycler with CFX96 Deep Well Real-Time System (BioRad).” left out

trypsin or chymotrypsin = test: SDPR surface display protease resistance test (anti-6×His staining); details: up to 40 μg/ml trypsin or chymotrypsin, 20 minutes
HeLa cells = test: Cytosolic delivery of DyLight 488 labelled peptide with dfTAT (microscopy); type: cell-based; details: DyLight 488 conjugate, co-incubation with 5 μM dfTAT
Excerpt: Cytosolic Peptide Expression. Peptides, FLAG-tagged or not, can be cloned into a mammalian expression vector consisting of a CMV promoter, then a monocistronic mCherry-T2a-peptide sequence. These can be transfected, along with (where indicated) pFLAG-YAP1 and 8×GTIIC-luciferase (Addgene plasmid #34615) into 293T cells. 24 hrs post-transfection, cells can be either harvested for luminescence (ONE-Glo, Promega) or Western blot (anti-FLAG M2, Sigma). Protein Transfection with dfTAT Reagent. Solution was diluted to 50 μM in PBS for a 10× working stock, for a final concentration of 5 μM in culture wells. Peptides as disclosed herein can be fluoresceinated with DyLight 488 NHS-ester (ThermoFisher), with final dye:peptide labeling ratios between 0.8 and 1.4 as assessed by A280 and A488 on a Nanodrop spectrometer (Thermo Scientific). For confirmation of peptide cell penetration, 293T and HeLa cells can be plated in a 96-well plate in DMEM with 10% FBS, 1× penicillin/streptomycin (Pen/Strep) and grown overnight to ˜50% confluence. […]
For example, SEQ ID NO: 9 was co-administered with dfTAT, a small dimeric peptide that facilitates endosomal escape of cargoes up to 150 kDa without noticeable effects on viability or gene expression profiles. […] All P-values were determined by two-tailed T-test.

Sequence | Kd (biotinylated TEAD) | resistance to reduction by HPLC ([1]; 10 mM GSH) | secondary structure signature (CD spectra) before and after incubation at 95° C [2] | melting temperature [3] | other results
GSPDEYIERAKECCKKGDIQCCLRYFEESGDPNVMLICAFCP [SEQ ID NO: 5] | 0.28 µM |  |  |  | 
GSPDEYIERAKECCKKGDIQCCLRYFEESGDPNVMLICLACP [SEQ ID NO: 7] | 23 µM |  |  |  | 
GSPDEYIERAKECCKKGDIQCCLRYFEESGDPNVMLICLFCP [SEQ ID NO: 1] |  | resistant to GSH reducing conditions |  |  | 
GSPDEYIERAKECCKKQDIQCCLRIFDESGDPNVMLICLFCW [SEQ ID NO: 10] |  |  | identical | no melting temperature could be determined | 
GSPDEYIERAKECCKKQDIQCCLRIFDESKDPNVMLICLFCP [SEQ ID NO: 11] |  |  | identical | no melting temperature could be determined | 
GSPDEYIERAKECCKKQDIQCCLRIFDESKDPNVMLICLFCW [SEQ ID NO: 9] |  | resistant to GSH reducing conditions | identical | no melting temperature could be determined | protease resistance (anti-6×His staining after protease treatment) (trypsin or chymotrypsin): partially resistant to cleavage by proteases; accumulation of peptide in cells (HeLa cells): accumulation of SEQ ID NO: 9 in cells in a disperse pattern; resistance to reduction by HPLC ([1]; 10 mM DTT): partially resistant to DTT reduction
